For part of these data: Most of the strong results are listed elsewhere, so they are rarer here than in the full data. The rule behind the calls is not given here. The list shows a part of the results, in another mix than the full data.
How the values were obtained:
[1] = biological target: Fibroblast growth factor receptor 4 (Homo sapiens) (UniProt P22455); settings: at 1 µM
[2] = biological target: T1, Serine/threonine-protein kinase D1 (Homo sapiens) (UniProt Q15139); settings: at 10 µM
T1 sequence (whole entry): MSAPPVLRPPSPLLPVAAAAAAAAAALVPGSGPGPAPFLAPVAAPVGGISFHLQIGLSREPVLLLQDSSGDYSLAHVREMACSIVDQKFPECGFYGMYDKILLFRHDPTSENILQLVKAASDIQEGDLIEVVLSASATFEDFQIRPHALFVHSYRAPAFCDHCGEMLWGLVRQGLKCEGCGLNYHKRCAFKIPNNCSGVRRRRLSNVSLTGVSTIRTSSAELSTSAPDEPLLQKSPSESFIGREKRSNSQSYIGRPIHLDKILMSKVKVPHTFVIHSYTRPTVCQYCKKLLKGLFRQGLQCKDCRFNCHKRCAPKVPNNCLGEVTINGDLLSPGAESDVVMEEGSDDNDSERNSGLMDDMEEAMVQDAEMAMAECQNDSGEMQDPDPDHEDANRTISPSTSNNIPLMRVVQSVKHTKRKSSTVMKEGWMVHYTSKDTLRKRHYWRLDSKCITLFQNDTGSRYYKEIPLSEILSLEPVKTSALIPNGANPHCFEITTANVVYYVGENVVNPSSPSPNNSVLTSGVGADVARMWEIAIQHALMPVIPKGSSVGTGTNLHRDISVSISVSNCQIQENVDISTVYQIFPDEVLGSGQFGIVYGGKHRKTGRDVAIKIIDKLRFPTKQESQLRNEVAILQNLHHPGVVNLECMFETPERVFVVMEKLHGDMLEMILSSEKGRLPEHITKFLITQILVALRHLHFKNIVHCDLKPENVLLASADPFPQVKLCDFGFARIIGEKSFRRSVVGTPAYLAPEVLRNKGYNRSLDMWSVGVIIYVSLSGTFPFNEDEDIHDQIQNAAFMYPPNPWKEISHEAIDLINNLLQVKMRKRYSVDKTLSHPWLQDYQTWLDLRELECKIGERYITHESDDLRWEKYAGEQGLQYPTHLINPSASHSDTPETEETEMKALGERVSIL

By UniProt entry, the sequences of proteins in these tests, tags left out. Where a name states a change or a piece, a line headed by the entry shows the natural chain unless it says otherwise.
UniProt P80192: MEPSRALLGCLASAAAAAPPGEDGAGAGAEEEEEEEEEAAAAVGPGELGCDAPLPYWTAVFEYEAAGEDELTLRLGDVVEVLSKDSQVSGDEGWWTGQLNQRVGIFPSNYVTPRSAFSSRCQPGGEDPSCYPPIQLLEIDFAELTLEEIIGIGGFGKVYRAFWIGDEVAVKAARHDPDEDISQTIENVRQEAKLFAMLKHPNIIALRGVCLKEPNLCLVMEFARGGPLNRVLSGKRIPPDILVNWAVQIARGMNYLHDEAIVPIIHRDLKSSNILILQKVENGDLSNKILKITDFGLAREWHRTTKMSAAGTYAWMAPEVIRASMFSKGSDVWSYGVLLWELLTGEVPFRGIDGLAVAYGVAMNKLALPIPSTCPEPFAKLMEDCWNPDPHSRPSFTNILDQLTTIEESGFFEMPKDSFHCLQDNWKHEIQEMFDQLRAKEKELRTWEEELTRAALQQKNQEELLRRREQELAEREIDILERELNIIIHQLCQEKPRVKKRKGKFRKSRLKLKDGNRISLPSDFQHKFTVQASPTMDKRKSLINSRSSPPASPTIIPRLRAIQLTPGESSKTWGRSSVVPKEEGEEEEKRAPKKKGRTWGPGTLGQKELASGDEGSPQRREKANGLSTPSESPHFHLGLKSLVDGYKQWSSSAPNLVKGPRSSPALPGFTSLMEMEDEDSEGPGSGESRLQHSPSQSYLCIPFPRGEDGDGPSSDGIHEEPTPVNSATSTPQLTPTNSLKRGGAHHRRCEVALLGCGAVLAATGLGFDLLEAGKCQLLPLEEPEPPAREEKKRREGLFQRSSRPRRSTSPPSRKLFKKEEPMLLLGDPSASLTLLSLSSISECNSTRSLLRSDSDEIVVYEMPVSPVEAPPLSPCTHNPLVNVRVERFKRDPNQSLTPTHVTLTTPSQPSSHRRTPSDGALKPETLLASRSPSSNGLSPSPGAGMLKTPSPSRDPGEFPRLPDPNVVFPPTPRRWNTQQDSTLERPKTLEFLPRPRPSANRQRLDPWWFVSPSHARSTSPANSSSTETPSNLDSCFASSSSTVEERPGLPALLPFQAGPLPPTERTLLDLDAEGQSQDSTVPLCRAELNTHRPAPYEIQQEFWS
UniProt P54646: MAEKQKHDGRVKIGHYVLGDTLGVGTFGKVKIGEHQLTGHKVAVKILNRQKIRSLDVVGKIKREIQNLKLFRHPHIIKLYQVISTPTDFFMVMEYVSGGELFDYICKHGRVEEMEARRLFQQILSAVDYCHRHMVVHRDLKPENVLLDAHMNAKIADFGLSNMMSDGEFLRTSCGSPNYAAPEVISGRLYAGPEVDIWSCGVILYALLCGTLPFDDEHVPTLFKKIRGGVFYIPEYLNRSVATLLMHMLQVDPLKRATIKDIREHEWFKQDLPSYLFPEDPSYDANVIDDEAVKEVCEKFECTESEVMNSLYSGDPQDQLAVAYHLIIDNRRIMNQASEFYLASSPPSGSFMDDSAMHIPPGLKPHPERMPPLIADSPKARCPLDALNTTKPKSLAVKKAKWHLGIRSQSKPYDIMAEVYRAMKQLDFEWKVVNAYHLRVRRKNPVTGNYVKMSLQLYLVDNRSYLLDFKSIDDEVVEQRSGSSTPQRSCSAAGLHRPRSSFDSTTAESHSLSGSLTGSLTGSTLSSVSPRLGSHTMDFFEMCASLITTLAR
UniProt P54619: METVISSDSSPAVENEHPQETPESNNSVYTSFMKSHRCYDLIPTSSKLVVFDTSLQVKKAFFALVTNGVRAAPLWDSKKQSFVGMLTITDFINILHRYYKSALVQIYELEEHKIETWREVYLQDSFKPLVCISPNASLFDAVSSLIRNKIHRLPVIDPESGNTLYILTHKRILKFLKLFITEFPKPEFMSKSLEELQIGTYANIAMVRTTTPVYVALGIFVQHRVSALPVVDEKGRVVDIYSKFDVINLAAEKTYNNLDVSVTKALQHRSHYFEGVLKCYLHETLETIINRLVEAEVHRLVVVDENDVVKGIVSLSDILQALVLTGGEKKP
UniProt Q9UGJ0: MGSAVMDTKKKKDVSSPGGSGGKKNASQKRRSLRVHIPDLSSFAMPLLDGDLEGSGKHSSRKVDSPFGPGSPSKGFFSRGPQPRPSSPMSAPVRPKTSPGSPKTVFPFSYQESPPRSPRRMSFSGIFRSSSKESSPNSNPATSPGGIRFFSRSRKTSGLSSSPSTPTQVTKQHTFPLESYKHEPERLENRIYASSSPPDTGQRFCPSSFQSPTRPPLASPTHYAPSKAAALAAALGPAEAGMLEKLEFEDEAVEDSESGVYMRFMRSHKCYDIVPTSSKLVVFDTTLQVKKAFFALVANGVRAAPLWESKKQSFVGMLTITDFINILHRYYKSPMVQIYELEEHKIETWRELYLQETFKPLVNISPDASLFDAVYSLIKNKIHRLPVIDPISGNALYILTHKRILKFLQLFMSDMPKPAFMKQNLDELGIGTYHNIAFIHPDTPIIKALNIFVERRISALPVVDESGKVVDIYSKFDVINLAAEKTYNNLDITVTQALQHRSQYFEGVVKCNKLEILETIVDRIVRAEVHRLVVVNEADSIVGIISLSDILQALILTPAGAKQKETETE
UniProt Q15759, whole entry: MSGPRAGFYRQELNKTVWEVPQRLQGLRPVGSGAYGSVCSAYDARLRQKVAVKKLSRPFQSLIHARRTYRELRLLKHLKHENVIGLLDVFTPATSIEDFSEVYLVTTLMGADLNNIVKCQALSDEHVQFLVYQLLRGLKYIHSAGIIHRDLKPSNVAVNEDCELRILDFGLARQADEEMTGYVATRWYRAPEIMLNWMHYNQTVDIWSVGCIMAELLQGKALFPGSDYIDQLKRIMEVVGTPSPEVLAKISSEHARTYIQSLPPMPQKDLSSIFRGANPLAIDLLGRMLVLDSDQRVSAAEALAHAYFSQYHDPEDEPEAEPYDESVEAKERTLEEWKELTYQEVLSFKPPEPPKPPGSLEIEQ
UniProt Q7L7X3: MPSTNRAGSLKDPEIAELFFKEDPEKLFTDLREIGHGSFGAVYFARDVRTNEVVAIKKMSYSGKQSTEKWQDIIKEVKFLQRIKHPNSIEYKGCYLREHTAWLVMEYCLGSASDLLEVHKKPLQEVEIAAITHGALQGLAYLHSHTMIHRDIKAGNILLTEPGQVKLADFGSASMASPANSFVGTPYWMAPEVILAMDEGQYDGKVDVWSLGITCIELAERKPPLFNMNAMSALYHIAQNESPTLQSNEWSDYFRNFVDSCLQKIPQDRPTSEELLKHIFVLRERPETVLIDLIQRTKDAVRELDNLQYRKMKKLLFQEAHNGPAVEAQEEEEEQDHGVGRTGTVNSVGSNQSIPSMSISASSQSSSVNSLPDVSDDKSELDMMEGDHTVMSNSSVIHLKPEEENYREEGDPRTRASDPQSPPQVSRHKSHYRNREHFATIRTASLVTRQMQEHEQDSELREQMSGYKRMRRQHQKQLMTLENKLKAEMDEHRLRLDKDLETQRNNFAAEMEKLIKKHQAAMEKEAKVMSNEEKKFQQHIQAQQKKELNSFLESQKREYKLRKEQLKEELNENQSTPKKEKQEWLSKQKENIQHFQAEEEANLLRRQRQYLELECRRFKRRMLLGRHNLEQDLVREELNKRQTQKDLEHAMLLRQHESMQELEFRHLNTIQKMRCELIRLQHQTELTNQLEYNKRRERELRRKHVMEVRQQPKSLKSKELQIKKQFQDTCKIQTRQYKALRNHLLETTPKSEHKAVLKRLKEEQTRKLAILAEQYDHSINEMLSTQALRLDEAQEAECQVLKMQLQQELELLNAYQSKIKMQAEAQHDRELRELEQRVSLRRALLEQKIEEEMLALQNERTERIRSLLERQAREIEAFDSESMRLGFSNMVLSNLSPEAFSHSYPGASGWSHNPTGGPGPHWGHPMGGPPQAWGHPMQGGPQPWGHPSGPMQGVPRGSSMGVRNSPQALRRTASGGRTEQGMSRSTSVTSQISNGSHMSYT
UniProt Q14680: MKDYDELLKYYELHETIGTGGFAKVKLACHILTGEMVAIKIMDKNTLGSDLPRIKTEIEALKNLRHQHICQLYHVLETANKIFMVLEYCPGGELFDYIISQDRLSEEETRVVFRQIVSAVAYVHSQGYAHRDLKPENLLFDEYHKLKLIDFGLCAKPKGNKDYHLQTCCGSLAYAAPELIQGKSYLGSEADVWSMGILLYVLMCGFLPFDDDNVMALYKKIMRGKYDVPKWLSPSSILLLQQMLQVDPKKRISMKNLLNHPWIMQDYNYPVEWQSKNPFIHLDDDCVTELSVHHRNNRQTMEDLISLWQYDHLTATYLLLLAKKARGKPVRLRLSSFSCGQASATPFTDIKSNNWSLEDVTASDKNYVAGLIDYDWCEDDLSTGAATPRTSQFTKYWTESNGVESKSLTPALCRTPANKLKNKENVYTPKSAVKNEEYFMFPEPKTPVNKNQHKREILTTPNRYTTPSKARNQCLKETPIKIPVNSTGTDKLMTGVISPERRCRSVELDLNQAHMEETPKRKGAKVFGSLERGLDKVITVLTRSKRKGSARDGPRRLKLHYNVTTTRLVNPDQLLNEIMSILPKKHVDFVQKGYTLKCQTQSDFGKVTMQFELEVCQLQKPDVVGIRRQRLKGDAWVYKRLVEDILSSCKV
UniProt P52333: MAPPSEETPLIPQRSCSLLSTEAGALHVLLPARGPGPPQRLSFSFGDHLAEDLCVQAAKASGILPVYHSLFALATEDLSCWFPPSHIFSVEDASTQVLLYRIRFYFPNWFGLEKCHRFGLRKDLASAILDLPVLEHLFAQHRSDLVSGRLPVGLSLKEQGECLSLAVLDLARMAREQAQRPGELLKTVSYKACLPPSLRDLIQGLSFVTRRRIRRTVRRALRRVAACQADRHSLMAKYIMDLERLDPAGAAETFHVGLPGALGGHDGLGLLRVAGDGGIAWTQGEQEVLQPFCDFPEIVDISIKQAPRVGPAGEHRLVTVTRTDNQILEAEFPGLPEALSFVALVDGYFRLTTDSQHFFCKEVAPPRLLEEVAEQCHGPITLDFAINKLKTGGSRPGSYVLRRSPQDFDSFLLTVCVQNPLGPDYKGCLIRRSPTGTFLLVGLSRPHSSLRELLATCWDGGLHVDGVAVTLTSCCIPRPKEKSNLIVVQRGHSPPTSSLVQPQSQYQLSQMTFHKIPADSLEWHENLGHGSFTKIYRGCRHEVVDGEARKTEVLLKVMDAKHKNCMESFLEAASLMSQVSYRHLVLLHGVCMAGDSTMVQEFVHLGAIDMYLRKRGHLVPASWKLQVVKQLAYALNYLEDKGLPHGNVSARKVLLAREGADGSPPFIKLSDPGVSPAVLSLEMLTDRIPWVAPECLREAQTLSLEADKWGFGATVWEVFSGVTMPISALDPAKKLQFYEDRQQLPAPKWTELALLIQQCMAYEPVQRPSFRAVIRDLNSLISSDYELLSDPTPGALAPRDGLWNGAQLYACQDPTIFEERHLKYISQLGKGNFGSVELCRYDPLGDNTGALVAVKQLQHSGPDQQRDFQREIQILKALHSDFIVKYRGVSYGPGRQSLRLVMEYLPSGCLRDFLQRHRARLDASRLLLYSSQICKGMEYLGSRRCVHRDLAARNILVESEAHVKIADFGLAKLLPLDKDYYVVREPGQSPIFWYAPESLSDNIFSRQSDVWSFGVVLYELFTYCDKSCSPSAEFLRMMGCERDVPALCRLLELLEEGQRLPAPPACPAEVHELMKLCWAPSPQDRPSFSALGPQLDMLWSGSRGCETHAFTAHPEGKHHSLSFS

[3] = biological target: T2, MAP kinase-activated protein kinase 5 (Homo sapiens) (UniProt Q8IW41); settings: at 10 µM
T2 sequence (whole entry): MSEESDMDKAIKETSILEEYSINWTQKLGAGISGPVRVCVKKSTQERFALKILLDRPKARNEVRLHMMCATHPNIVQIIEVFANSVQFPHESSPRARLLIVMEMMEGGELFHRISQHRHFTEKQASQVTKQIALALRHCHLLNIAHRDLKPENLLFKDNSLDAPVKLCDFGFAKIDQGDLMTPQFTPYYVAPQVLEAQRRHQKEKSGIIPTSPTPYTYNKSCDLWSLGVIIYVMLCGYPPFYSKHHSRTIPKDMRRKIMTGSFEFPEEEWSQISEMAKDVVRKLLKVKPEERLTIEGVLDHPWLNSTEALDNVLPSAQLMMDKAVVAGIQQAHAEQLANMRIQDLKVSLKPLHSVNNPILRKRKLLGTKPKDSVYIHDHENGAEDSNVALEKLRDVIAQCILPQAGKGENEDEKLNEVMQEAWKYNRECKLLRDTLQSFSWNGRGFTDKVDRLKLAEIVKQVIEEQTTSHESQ

[4] = biological target: Mitogen-activated protein kinase kinase kinase 9 (Homo sapiens) (UniProt P80192); settings: at 1 µM
[5] = biological target: AMP-activated protein kinase, AMPK (Homo sapiens) (UniProt P54646+O43741+P54619+Q9UGJ0+Q9Y478+Q13131+Q9UGI9); settings: at 1 µM
[6] = biological target: Mitogen-activated protein kinase 11 (Homo sapiens) (UniProt Q15759); settings: at 1 µM
[7] = biological target: Serine/threonine-protein kinase TAO1 (Homo sapiens) (UniProt Q7L7X3); settings: at 1 µM
[8] = biological target: T3, Testis-specific serine/threonine-protein kinase 2 (Homo sapiens) (UniProt Q96PF2); settings: at 10 µM
T3 sequence (whole entry): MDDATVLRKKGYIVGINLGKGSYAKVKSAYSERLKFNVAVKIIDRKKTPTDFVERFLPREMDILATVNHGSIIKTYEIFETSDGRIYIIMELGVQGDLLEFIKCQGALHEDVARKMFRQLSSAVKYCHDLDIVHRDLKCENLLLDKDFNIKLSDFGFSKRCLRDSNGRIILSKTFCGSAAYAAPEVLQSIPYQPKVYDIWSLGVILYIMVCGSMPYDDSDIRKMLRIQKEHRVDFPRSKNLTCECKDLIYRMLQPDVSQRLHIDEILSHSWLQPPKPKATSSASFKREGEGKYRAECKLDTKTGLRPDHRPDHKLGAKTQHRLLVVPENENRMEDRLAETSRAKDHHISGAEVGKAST

[9] = biological target: Maternal embryonic leucine zipper kinase (Homo sapiens) (UniProt Q14680); settings: at 1 µM
[10] = biological target: T4, Serine/threonine-protein kinase TAO2 (Homo sapiens) (UniProt Q9UL54); settings: at 1 µM
T4 sequence (whole entry): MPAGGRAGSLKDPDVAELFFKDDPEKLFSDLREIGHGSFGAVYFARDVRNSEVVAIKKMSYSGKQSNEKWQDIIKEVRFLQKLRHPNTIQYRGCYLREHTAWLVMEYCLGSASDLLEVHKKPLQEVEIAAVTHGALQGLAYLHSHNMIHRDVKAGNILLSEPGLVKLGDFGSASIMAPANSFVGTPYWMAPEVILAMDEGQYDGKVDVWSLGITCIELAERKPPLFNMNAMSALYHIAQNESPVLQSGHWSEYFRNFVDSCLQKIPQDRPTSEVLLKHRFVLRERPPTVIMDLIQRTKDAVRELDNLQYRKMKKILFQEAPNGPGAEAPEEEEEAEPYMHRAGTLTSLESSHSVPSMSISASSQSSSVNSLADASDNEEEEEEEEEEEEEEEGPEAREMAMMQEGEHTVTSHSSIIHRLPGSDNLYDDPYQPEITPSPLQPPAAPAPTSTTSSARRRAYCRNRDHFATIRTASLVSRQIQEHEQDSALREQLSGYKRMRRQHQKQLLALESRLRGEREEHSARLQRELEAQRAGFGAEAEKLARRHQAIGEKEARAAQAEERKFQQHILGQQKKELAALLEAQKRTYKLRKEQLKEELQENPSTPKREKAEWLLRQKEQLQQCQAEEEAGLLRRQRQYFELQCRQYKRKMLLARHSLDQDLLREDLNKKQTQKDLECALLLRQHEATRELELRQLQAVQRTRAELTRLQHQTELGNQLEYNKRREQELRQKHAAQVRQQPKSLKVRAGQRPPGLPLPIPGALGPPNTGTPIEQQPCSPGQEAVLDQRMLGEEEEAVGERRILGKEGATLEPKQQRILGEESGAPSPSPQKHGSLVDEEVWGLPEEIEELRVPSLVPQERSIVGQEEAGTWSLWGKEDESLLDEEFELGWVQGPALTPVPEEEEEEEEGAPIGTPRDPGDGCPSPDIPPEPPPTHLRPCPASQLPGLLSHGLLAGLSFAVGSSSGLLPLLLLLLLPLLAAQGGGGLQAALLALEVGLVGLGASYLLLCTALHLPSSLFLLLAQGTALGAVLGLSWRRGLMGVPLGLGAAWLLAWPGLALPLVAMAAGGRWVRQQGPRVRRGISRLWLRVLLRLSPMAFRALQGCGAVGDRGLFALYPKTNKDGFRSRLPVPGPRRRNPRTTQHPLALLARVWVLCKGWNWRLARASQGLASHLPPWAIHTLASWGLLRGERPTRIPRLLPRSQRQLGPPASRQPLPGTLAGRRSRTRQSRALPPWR

[11] = biological target: Interleukin-1 receptor-associated kinase 1 (Homo sapiens) (UniProt P51617); settings: at 10 µM
[12] = biological target: Tyrosine-protein kinase JAK3 (Homo sapiens) (UniProt P52333); settings: at 10 µM
[13] = biological target: T5, Serine/threonine-protein kinase ULK2 (Homo sapiens) (UniProt Q8IYT8); settings: at 1 µM
T5 sequence (whole entry): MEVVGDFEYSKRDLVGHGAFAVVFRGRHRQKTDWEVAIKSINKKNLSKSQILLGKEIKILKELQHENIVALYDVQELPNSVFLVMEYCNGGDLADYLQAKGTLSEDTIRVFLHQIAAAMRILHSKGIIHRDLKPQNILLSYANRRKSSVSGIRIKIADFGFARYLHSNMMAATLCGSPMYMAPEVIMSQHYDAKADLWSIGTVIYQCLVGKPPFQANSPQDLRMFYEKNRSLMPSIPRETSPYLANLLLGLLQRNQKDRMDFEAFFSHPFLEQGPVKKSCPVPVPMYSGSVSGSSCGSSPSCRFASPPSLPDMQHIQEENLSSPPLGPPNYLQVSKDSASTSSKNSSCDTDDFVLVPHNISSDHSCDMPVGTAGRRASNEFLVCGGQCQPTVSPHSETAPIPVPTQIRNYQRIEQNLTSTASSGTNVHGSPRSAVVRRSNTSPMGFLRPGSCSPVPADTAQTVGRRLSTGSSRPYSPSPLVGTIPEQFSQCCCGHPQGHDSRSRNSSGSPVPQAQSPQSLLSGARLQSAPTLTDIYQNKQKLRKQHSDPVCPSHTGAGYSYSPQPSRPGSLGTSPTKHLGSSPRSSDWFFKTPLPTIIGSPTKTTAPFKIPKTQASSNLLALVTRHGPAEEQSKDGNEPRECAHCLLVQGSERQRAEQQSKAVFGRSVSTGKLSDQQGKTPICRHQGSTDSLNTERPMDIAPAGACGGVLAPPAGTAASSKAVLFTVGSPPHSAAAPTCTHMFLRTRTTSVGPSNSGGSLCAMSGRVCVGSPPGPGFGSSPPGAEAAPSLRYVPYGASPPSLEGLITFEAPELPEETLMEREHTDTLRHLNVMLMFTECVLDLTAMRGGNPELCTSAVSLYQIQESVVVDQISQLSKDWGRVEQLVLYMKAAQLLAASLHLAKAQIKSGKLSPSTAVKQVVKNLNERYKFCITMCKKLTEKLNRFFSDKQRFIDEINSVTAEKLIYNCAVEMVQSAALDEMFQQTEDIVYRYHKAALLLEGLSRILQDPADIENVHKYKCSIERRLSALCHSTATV

[14] = biological target: Serine/threonine-protein kinase Nek7 (Homo sapiens) (UniProt Q8TDX7); settings: at 1 µM
[15] = biological target: Protein kinase C gamma type (Homo sapiens) (UniProt P05129); settings: at 10 µM

Work on `CC(=O)O/N=C1\C(=C2\C(=O)Nc3cc(Br)ccc32)Nc2ccccc21` yielded a residual activity [1] of 103%, a residual activity [2] of 81% and a residual activity [3] of 94%.
Work on `COc1ccc(OC)c2c(=S)c3ccccc3[nH]c12` yielded a residual activity [4] of 98% and a residual activity [5] of 95%.
For `Cn1cnc2cc3c(Nc4cccc(Br)c4)ncnc3cc21`, the residual activity [6] was 91% and the residual activity [7] was 112%.
For `CC(C)(C)n1nc(Cc2cccc3ccccc23)c2c(N)ncnc21`, the residual activity [8] was 112%.
In the case of `O=Nc1c(-c2c(O)[nH]c3ccccc23)[nH]c2ccccc12`, the residual activity [9] was 15%.
Molecule `O=C1c2ccccc2-[n+]2ccc3c([nH]c4ccccc43)c21` has a residual activity [10] of 97%, a residual activity [11] of 103% and a residual activity [12] of 102%. The residual activity [13] was 98%, the residual activity [14] was inactive: 96% and the residual activity [15] was 101%.
